Measured values published in ChEMBL document CHEMBL3611977, “Synthesis, pharmacological evaluation and docking studies of pyrrole structure-based CB2 receptor antagonists” (Eur J Med Chem, 2015).

Sequences of proteins named here, by UniProt entry; tags and fusion partners are left off.
UniProt P34972, whole entry: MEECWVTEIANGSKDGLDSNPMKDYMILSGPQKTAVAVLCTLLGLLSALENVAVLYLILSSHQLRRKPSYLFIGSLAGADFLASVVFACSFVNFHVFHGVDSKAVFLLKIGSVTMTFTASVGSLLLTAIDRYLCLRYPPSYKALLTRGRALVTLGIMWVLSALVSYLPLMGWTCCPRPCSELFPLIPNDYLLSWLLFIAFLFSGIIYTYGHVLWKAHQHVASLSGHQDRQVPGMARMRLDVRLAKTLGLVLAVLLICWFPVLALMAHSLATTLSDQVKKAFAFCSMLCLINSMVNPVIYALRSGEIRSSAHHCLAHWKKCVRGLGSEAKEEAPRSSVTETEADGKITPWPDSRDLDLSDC
UniProt P21554, whole entry: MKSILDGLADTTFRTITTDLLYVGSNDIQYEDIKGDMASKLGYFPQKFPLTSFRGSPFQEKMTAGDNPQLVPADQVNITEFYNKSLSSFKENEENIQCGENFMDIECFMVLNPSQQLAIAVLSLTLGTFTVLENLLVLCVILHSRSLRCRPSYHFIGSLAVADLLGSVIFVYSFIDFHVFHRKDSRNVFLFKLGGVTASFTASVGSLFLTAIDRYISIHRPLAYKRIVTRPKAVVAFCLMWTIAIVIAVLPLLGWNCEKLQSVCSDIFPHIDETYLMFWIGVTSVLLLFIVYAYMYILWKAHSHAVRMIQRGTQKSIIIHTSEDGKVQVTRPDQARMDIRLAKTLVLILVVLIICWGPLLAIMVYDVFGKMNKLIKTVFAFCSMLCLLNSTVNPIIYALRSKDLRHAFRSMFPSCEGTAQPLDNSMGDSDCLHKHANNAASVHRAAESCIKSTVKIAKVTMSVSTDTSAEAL

Assays:
[1] = biological target: Cannabinoid receptor 2 (Homo sapiens, UniProt P34972); assay: Displacement of [3H]-CP55940 from human CB2 receptor transfected in HEK293EBNA cell membranes after 90 mins by liquid scintillation counting analysis; parameters: species or system HEK293-EBNA
How it was run: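 Human CB2-transfected HEK293EBNA membranes (about 0.18 mg/mL protein) in Tris-HCl with EDTA, MgCl₂ and fatty-acid-free BSA, pH 7.4. Compounds were pre-screened at a single concentration, with full curves only if displacement exceeded 50%. Ki from iterative curve fitting, three independent experiments in triplicate.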

[2] = biological target: Cannabinoid receptor 1 (Homo sapiens, UniProt P21554); assay: biochemical

Row | Structure (SMILES) | Ki [1] | Ki [2]
1 | CCCCCCC(C)(C)c1cc(OC)c([C@@H]2C=C(CO)[C@@H]3C[C@H]2C3(C)C)c(OC)c1 [ONTERNABEZ] | 11.2 nM | 
2 | Cc1ccc(Cn2nc(C(=O)N[C@@H]3C(C)(C)[C@@H]4CC[C@@]3(C)C4)cc2-c2ccc(Cl)c(C)c2)cc1 |  | 400 nM
